Where two headings read alike, the source gives them in different places.
Columns and labels:
mouse Kv1.2 channels = target: T1, mouse Kv1.2 channels (Mus musculus, UniProt P63141); assay: Block of Kv1.2 K+ current, automated patch-clamp (SyncroPatch 384PE); assay type: cell-based; details: for Reduction in potency of the cis over the trans configuration: ratio of IC50 of cis component to trans IC50, Kv1.2
T1 construct: expressed in transfected cells; host or cells: L929 (mouse fibroblast) cell line stably expressing mKv1.2, kept under G418 selection

The chains behind the UniProt entries cited, without tags or fusion partners.
UniProt P63141, whole entry: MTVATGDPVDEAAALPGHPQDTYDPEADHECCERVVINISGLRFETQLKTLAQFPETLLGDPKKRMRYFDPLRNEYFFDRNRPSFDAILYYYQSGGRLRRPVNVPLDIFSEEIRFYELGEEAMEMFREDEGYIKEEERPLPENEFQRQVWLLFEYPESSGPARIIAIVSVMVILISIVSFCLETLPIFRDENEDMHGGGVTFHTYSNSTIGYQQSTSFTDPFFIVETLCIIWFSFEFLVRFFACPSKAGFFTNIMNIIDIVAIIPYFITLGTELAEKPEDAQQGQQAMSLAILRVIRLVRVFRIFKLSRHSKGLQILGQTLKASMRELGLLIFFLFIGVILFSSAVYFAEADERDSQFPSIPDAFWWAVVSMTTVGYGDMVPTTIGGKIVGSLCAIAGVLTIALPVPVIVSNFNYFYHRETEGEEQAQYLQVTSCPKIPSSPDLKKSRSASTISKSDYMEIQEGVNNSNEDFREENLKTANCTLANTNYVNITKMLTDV

[1] = Photo-isomerization kinetics (trans/cis) followed by absorbance under illumination; assay type: physicochemical; details: for Ratio (t1/2 trans → cis / t1/2 cis → trans): fold faster back-switching to trans
[2] = assay type: physicochemical; details: absorbance spectra every 30 min, absorbance at 340 nm
[3] = Thermal stability of the cis isomer in the dark; details: after cis induction, followed over 24 h, conjugates in water, absorbance
[4] = ratio of t1/2 values, position 14

C#CCNC(=O)c1ccc(/N=N/c2ccc(C(=O)NCc3cn(CC[C@@H]4NC(=O)[C@H]([C@@H](C)O)NC(=O)[C@@H](NC(=O)[C@H](CO)NC(=O)[C@@H](NC(=O)[C@H](CC(N)=O)NC(=O)[C@@H](NC(=O)[C@H](Cc5ccccc5)NC(=O)[C@@H]5CCC(=O)N5)[C@@H](C)O)C(C)C)CSSC[C@@H]5NC(=O)[C@H](CCCCN)NC(=O)CNC(=O)[C@H](CCCNC(=N)N)NC(=O)[C@H](CO)NC(=O)[C@H]([C@@H](C)O)NC(=O)[C@H](CC(N)=O)NC(=O)[C@H](Cc6c[nH]cn6)NC(=O)[C@H](CC(C)C)NC(=O)[C@H](CCCNC(=N)N)NC(=O)[C@H](CCC(N)=O)NC(=O)[C@@H]6CSSC[C@@H](C(=O)N[C@@H](Cc7ccc(O)cc7)C(=O)N[C@@H](CO)C(=O)O)NC(=O)[C@H](CCCNC(=N)N)NC(=O)[C@H](CSSC[C@H](NC(=O)[C@H](CCC(=O)O)NC(=O)[C@H](CCCCN)NC(=O)[C@H](CO)NC4=O)C(=O)N[C@@H](Cc4c[nH]c7ccccc47)C(=O)N[C@@H](CO)C(=O)N[C@@H](C(C)C)C(=O)N6)NC(=O)[C@H](CCCCN)NC(=O)[C@H](CCCCN)NC(=O)[C@H](CC(N)=O)NC(=O)[C@H](CCSC)NC5=O)nn3)cc2)cc1 [ChTx‐Ah^9‐Az1]
Reduction in potency of the cis over the trans configuration (mouse Kv1.2 channels): 218 fold
Ratio (t1/2 trans → cis / t1/2 cis → trans) [1]: 4.1

C#CCNC(=O)c1ccc(/N=N/c2ccc(C(=O)NCc3cn(CC[C@@H]4NC(=O)[C@H](CCCCN)NC(=O)[C@H](CO)NC(=O)[C@H]([C@@H](C)O)NC(=O)[C@H]([C@@H](C)O)NC(=O)[C@@H](NC(=O)[C@H](CO)NC(=O)[C@@H](NC(=O)[C@H](CC(N)=O)NC(=O)[C@@H](NC(=O)[C@H](Cc5ccccc5)NC(=O)[C@@H]5CCC(=O)N5)[C@@H](C)O)C(C)C)CSSC[C@@H]5NC(=O)[C@H](CCCCN)NC(=O)CNC(=O)[C@H](CCCNC(=N)N)NC(=O)[C@H](CO)NC(=O)[C@H]([C@@H](C)O)NC(=O)[C@H](CC(N)=O)NC(=O)[C@H](Cc6c[nH]cn6)NC(=O)[C@H](CC(C)C)NC(=O)[C@H](CCCNC(=N)N)NC(=O)[C@H](CCC(N)=O)NC(=O)[C@@H]6CSSC[C@@H](C(=O)N[C@@H](Cc7ccc(O)cc7)C(=O)N[C@@H](CO)C(=O)O)NC(=O)[C@H](CCCNC(=N)N)NC(=O)[C@H](CSSC[C@H](NC4=O)C(=O)N[C@@H](Cc4c[nH]c7ccccc47)C(=O)N[C@@H](CO)C(=O)N[C@@H](C(C)C)C(=O)N6)NC(=O)[C@H](CCCCN)NC(=O)[C@H](CCCCN)NC(=O)[C@H](CC(N)=O)NC(=O)[C@H](CCSC)NC5=O)nn3)cc2)cc1 [ChTx‐Ah^12‐Az1]
Gain of potency of cis over trans configuration (mouse Kv1.2 channels; ratio of trans IC50 to cis IC50, Kv1.2): 3.4 fold
Ratio (t1/2 trans → cis / t1/2 cis → trans) [1]: 3.5

C#CCNC(=O)c1ccc(/N=N/c2ccc(C(=O)NCc3cn(CC[C@@H]4NC(=O)[C@@H]5CSSC[C@@H]6NC(=O)[C@H](CCCCN)NC(=O)[C@H](CCCCN)NC(=O)[C@H](CC(N)=O)NC(=O)[C@H](CCSC)NC(=O)[C@H](CSSC[C@H](NC(=O)[C@H](CO)NC(=O)[C@@H](NC(=O)[C@H](CC(N)=O)NC(=O)[C@@H](NC(=O)[C@H](Cc7ccccc7)NC(=O)[C@@H]7CCC(=O)N7)[C@@H](C)O)C(C)C)C(=O)N[C@@H]([C@@H](C)O)C(=O)N[C@@H]([C@@H](C)O)C(=O)N[C@@H](CO)C(=O)N[C@@H](CCCCN)C(=O)N[C@@H](CCC(=O)O)C(=O)N5)NC(=O)[C@H](CCCCN)NC(=O)CNC(=O)[C@H](CCCNC(=N)N)NC(=O)[C@H](CO)NC(=O)[C@H]([C@@H](C)O)NC(=O)[C@H](CC(N)=O)NC(=O)[C@H](Cc5c[nH]cn5)NC(=O)[C@H](CC(C)C)NC(=O)[C@H](CCCNC(=N)N)NC(=O)[C@H](CCC(N)=O)NC(=O)[C@H](CSSC[C@@H](C(=O)N[C@@H](Cc5ccc(O)cc5)C(=O)N[C@@H](CO)C(=O)O)NC(=O)[C@H](CCCNC(=N)N)NC6=O)NC(=O)[C@H](C(C)C)NC(=O)[C@H](CO)NC4=O)nn3)cc2)cc1 [ChTx‐Ah^14‐Az1]
Block of Kv1.2 current at 10 nM (mouse Kv1.2 channels; L929-mKv1.2 cells, 10 nM peptide, Az1 conjugate in trans, mean ± spread, n = 7-18): 37 ± 6%
Block of Kv1.2 currents at 100 nM, cis conformer (mouse Kv1.2 channels; L929-mKv1.2 cells, 100 nM, cis-favored state (UV illumination), n = 7): 36 ± 8%
Block of Kv1.2 currents at 100 nM, trans conformer (mouse Kv1.2 channels; L929-mKv1.2 cells, 100 nM, trans state, n = 11): 71 ± 2%
Cis conformer less potent than trans conformer at 100 nM (mouse Kv1.2 channels; from % block of Kv1.2 currents at 100 nM): 2 fold
Reduction in potency of the cis over the trans configuration (mouse Kv1.2 channels): 34 fold
Loss of potency versus ChTx-Ah14 (fold less potent) (mouse Kv1.2 channels; ratio of IC50 values, trans Az1 conjugate vs ChTx-Ah14): 2.5 fold
Ratio (t1/2 trans → cis / t1/2 cis → trans) [1]: 4.1
Time stable upon incubation with 10 mM GSH [2]: at least 6 h
Time stable upon incubation with 10 mM GSH ([2]; listed as ChTx-Ah14-Az1): > 6 h
t1/2 of the cis conformation in the dark (thermal stability) [3]: exceeding 24 h

CSCC[C@@H]1NC(=O)[C@@H]2CSSC[C@H](NC(=O)[C@H](CO)NC(=O)[C@@H](NC(=O)[C@H](CC(N)=O)NC(=O)[C@@H](NC(=O)[C@H](Cc3ccccc3)NC(=O)[C@@H]3CCC(=O)N3)[C@@H](C)O)C(C)C)C(=O)N[C@@H]([C@@H](C)O)C(=O)N[C@@H]([C@@H](C)O)C(=O)N[C@@H](CO)C(=O)N[C@@H](CCCCN)C(=O)N[C@@H](CCC(=O)O)C(=O)N[C@H]3CSSC[C@H](NC(=O)[C@H](CCCCN)NC(=O)[C@H](CCCCN)NC(=O)[C@H](CC(N)=O)NC1=O)C(=O)N[C@@H](CCCNC(=N)N)C(=O)N[C@H](C(=O)N[C@@H](Cc1ccc(O)cc1)C(=O)N[C@@H](CO)C(=O)O)CSSC[C@H](NC(=O)[C@H](C(C)C)NC(=O)[C@H](CO)NC(=O)[C@H](CCn1cc(CNC(=O)c4ccc(/N=N/c5ccc(C(=O)NCc6cn(CC[C@@H]7NC(=O)[C@@H]8CSSC[C@@H]9NC(=O)[C@H](CCCCN)NC(=O)[C@H](CCCCN)NC(=O)[C@H](CC(N)=O)NC(=O)[C@H](CCSC)NC(=O)[C@H](CSSC[C@H](NC(=O)[C@H](CO)NC(=O)[C@@H](NC(=O)[C@H](CC(N)=O)NC(=O)[C@@H](NC(=O)[C@H](Cc%10ccccc%10)NC(=O)[C@@H]%10CCC(=O)N%10)[C@@H](C)O)C(C)C)C(=O)N[C@@H]([C@@H](C)O)C(=O)N[C@@H]([C@@H](C)O)C(=O)N[C@@H](CO)C(=O)N[C@@H](CCCCN)C(=O)N[C@@H](CCC(=O)O)C(=O)N8)NC(=O)[C@H](CCCCN)NC(=O)CNC(=O)[C@H](CCCNC(=N)N)NC(=O)[C@H](CO)NC(=O)[C@H]([C@@H](C)O)NC(=O)[C@H](CC(N)=O)NC(=O)[C@H](Cc8c[nH]cn8)NC(=O)[C@H](CC(C)C)NC(=O)[C@H](CCCNC(=N)N)NC(=O)[C@H](CCC(N)=O)NC(=O)[C@H](CSSC[C@@H](C(=O)N[C@@H](Cc8ccc(O)cc8)C(=O)N[C@@H](CO)C(=O)O)NC(=O)[C@H](CCCNC(=N)N)NC9=O)NC(=O)[C@H](C(C)C)NC(=O)[C@H](CO)NC7=O)nn6)cc5)cc4)nn1)NC3=O)C(=O)N[C@@H](CCC(N)=O)C(=O)N[C@@H](CCCNC(=N)N)C(=O)N[C@@H](CC(C)C)C(=O)N[C@@H](Cc1c[nH]cn1)C(=O)N[C@@H](CC(N)=O)C(=O)N[C@@H]([C@@H](C)O)C(=O)N[C@@H](CO)C(=O)N[C@@H](CCCNC(=N)N)C(=O)NCC(=O)N[C@@H](CCCCN)C(=O)N2 [ChTx‐Ah^14‐Az1‐Ah^14‐ChTx]
Ratio (t1/2 trans → cis / t1/2 cis → trans) [1]: 16.6
t1/2 cis → trans [95% CI] ([1]; half isomerization time, illumination 435 nm, 9.5 mW cm−2, conjugates dissolved in water, absorbance): 2.7 s
Reverse-switching to trans faster for the dimer compared to the monomer [1, 4]: 5.37 fold
Trans to cis isomerization faster for the dimer compared to the monomer [1, 4]: 1.34 fold
t1/2 of the cis conformation in the dark (thermal stability) [3]: exceeding 24 h

— publication PMC12051786, “Photoisomerization of Azobenzene‐Extended Charybdotoxin for the Optical Control of Kv1.2 Potassium Channel Activity” (Angewandte Chemie (International Ed. in English), 2025)
